IC50 data for one substance are collected here from patent publication US5821118A, “Genes for the subunits of human farnesyl-protein transferase” (Merck & Co., Inc., priority 1995, dated 1998).

For one assay, the target named is T1, Bovine brain FTase (Bos taurus, UniProt P29702+P49355).
T1 construct: an assay employing bovine brain FPTase; from tissue; host or cells: bovine brain
Kind of assay: Assay of compounds for FPTase inhibitory activity, bovine brain FPTase. Type of assay: biochemical. The settings on record: Ras protein 3.5 μM, pH 7.5, 30° C, * = alternative substrates (CVIM, CVIL, FPP). As for the experimental part: The purified, recombinantly expressed, mammalian FPTase is employed in an assay to determine the inhibitory activity against FPTase mediated farnesylation of Ras by various pharmaceutical compounds. […] The purified mammalian FPTase is then added to the assay mixture and the assay mixture is incubated for a period of time such as 10-30 minutes at 30° C. The assay mixture is then quenched and the Ras protein is separated from free FPP by techniques well known in the art. […] This value may be compared to the relative value of the amount of Ras farnesylated in the absence of the pharmaceutical agent and to the relative value of the amount of Ras farnesylated in the presence of other pharmaceutical agents.
[^3 H]Farnesyl diphosphate (FPP) (20 Ci/mmol) was purchased from New England Nuclear. In general, inhibitory activity assays were carried out at 30° C. A typical assay reaction contained (in a final volume of 50 μL): [^3 H]farnesyl diphosphate, Ras protein (3.5 μM), 50 mM HEPES, pH 7.5, 5 mM MgCl2, 1 mM dithiothreitol, and the compound to be assayed. […] Filters were washed four times with 2 mL aliquots of 100% ethanol, mixed with scintillation fluid (10 mL) and then counted in a Beckmann LS3801 scintillation counter.

The target in another assay is T2, human FPTase (Homo sapiens, UniProt P49354+P49356).
T2 construct: codons for Glutamic acid-Glutamic acid-Phenylalanine-stop were placed after the last codon for the β subunit; made in house; host or cells: E. coli DH5a
The experiment in a line: Assay of compounds for FPTase inhibitory activity, once purified human FPTase. Type of assay: biochemical. The settings on record: Human FTase; Ras protein 3.5 μM, pH 7.5, 30° C; * = alternative substrates (CVIM, CVIL, FPP).

Turning to “cysteinylvalinyl-isolleucinyl-methionine [CVIM]”, the IC50 against Bovine brain FTase and on human FPTase was 100 nM throughout.
